# Binding of CDR-mutated scFvs to a peptide of the spike HR2 region

The target is the same throughout: PDVDLGDISGINAS, from the HR2 region of SARS-CoV-2 spike.

Parent scFv Ab-14: VH joined to VL by the linker GGGGSGGGGSGGGGS. Changes lie in the light chain CDRs alone.
VH: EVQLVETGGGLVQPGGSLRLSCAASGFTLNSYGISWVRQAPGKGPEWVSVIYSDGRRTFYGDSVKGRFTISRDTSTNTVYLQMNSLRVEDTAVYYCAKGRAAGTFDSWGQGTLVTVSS
VL: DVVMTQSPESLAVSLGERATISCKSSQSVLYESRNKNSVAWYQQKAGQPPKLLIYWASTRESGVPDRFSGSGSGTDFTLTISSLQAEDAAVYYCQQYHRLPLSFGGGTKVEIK

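These sequences belong to a second round, designed from the earlier measurements on random variants of the parent. Several design methods are mixed in this list. Affinity was read by AlphaSeq, a pooled yeast mating assay with surface-displayed partners. Mating (16 h, 30 °C) was followed by selection of diploids and sequencing of their barcodes. Read counts were normalised to the haploid input and turned into Kd by a linear fit to BCL2-family pairs of known affinity, for each replicate. The assay was run in six technical replicates.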

The parent's light chain CDRs are KSSQSVLYESRNKNSVA, WASTRES, QQYHRLPLS; each variant's own CDRs replace them letter for letter. The read-out is the apparent dissociation constant on a log10 scale (nM): the lower, the stronger. Replicates are averaged; those with no signal do not enter the mean. A pair that was not seen in any replicate is written "nd"; this usually means weak binding, but a binder can also be missed. Nonspecific signal, from three strains lacking the peptide, appeared in 4% of pairings of all light chain designs, centred on 2.64 (5% of these signals below 1.59); values are not corrected for it. For each scFv, signals with the empty controls are counted beside the result. The range of this assay differs from that of the first round, and the authors advise against merging the two. The authors averaged sequences with at least three values out of six and counted those with two or fewer as poor binders. Where one sequence has several entries in the source, the replicates are pooled. The parent sequence was in this pool as ten entries: three were never detected, three once, and four in most replicates, with averages from 0.34 to 2.37.

CDR-L1	CDR-L2	CDR-L3	mean log10 Kd (nM)	seen in	signal with controls
MISSISSMGQFAKNSVA	QASIRNS	QQYDRLPLI	1.83	3/6	0/18
KISESMNFAQFNKQSIA	EVSTRSK	QSYNRLPLS	1.78	6/6	0/18
KSSQSVFYESRNKNSVA	NASTRES	PQYHRLPLL	1.15	6/6	1/18
RMSVFMLTDENVWYSVA	NSAATRI	QQYQRLPLS	nd	0/6	0/18
NIGMTLNQLMHKKNNVA	DLVERET	QQYFRLPLS	0.42	6/6	0/18
MISEVMNTLTRHGNNVA	DLQNREN	QQYFRLPLS	2.71	1/6	1/18
KSSQSVWMESRNKNSVA	DASTRES	QQYHRLPLS	0.25	6/6	1/18
KAQQSDLYESRNKNSVA	SASTRSQ	QQYHRLPLQ	0.37	6/6	0/18
KFSQSVLYESRTKNQVA	NASTRES	QQYHRLPLS	0.03	6/6	1/18
KGSQSVLYEWDNKNSVA	WASIREW	QQYHRLPLS	nd	0/6	0/18
KSSYSELYESRNKNSVA	DASTRES	QQYHRLPLS	-0.28	6/6	0/18
KLSQSDLYEDRNLNNVA	NASQRES	QQYHRLPLM	0.13	6/6	0/18
KITQMVTGQSHNKNSIA	QMTTREG	QQYHRLPLS	1.47	5/6	0/18
KVSQSVLYESRNFNSVA	DASTRES	QQYHRLPLS	0.18	6/6	1/18
KISQSVLYEHRNKNSVA	WASTRES	QQYHRLPLE	1.67	2/6	1/18
KVQGWQLYESRNKNAVA	NASTRCD	QQYHRLPLS	1.30	6/6	0/18
KFMYSVLYEERNQNSVA	SASQREQ	QQYHRLPLS	0.52	6/6	0/18
TIGQTLMSGVRNRSNVA	EVSQRLN	QQYDRLPLM	0.93	6/6	1/18
KSGQSVLYESRNKNSVA	HASTRES	QQYHRLPLS	1.30	6/6	0/18
KLQQSVLYESRNKNSVA	HASTRED	QQYHRLPLS	-0.23	6/6	2/18
TISQMTSLFEQSINNVA	EVTTREN	QQYDRLPLA	nd	0/6	0/18
KLPQSELYESRNKNSVA	NASQREQ	QQYHRLPLS	-0.12	6/6	1/18
KVSQSELYESRNKNSVA	QASTRES	QQYHRLPLS	-0.14	6/6	0/18
IISQSMLIESATHNSIA	QTETREE	QQYHHLPLI	1.26	5/6	0/18
KLSQQVLYESRNKNSVA	DASTRES	QQYHRLPLS	-0.49	6/6	0/18
MFSQSVMLGSFYRNSVA	QTSTRES	QQYDRLPLS	1.08	6/6	1/18
KMSQLNLYEWRNFNSVA	NASYRES	QQYHRLPLS	0.94	6/6	2/18
KLEQSELYESRNPQSVA	NASERES	QQYHRLPLS	-0.12	6/6	0/18
HLSHMSGVESVKRNSVA	ENSTRAN	QQYDRLPLA	1.85	6/6	1/18
KLFDRTREGIANQNNVA	EDNDVSV	QQYSILPLT	nd	0/6	0/18
KESQSDLYESRNKNSVA	GASTRES	QQYHRLPLS	0.43	6/6	2/18
KSSWSVLQESNNKNSVA	HASTRED	QQYHRLPLS	0.26	6/6	0/18
SLMQVGGYESNNKNSIA	DLRTRLS	QQYHRLPLS	0.74	6/6	1/18
KISQSVGYESRNKNSVA	NASTRES	QQYHRLPLS	-0.23	6/6	1/18
TLVQSVMSGSRAKNSVA	NAETRYD	QHYHRLPLS	0.46	6/6	1/18
KLMGSMMYEQRMKNSVA	QASVRMS	QQYHRLPLS	0.42	6/6	2/18
KQQQEWDGQSRNKNSVA	HASKRES	QQYHRLPLS	0.99	6/6	2/18
KISMAYNFAQTNKNSIA	EMTTRES	QHYHRLPLS	1.04	6/6	1/18
KFGMSVLMGSYVRNSVA	QQSTREN	QQYDRLPLS	1.17	6/6	0/18
IVSQLMMWGMHAKNSIA	EAVTRLN	QQYDRLPLF	1.75	1/6	0/18
KLRLHNLDFYEVENSIA	GVSNRAH	QQYYRLPLN	2.48	6/6	0/18
KQSQSVLYESRNCNSVA	DASTRES	QQYVRLPLS	0.73	6/6	1/18
KLSQQNKYESRMKNSVA	NASQREL	QQYHRLPLS	-0.07	6/6	0/18
FLSQSVLYESREDNSVA	NASQRCE	QQYHRLPLS	0.64	6/6	1/18
KSSPSTLYESRNTNSVA	RASTRES	QQYHRLPLS	1.35	5/6	0/18
KSSQSVLYESMNKNSVA	EASTRES	QQYHRLPLS	0.38	12/12	3/36
KISQSVNVGSKNKNSLA	EMSTREF	QDYHRLPLS	2.08	5/6	0/18
KYSQSYLYESRNKNSVA	NASQRES	QQYHRLPLS	0.20	6/6	1/18
RIMYEYDSSVDKYNAVA	QAHIRAQ	QHYNRLPLS	1.92	6/6	2/18
IVSQLMLWGYHAKNSIA	EAQTRDN	QQYERLPLF	1.70	6/6	0/18
KLSMSVDYESRMCNSVA	EASQREE	QQYHRLPLS	0.37	6/6	1/18
KLVGSTLYESRQKNSVA	WASTRES	QQYHRLPLS	1.49	5/6	0/18
KVSQSVLYESRNKNSVA	WADTRES	QQYHRLPLS	0.71	6/6	1/18
KLSMSVLYESRNKNSVA	EASTREQ	QQYHRLPLS	-0.05	6/6	0/18
HIDQVKAEQKNAENNIA	SGAQRVW	QQYSRLPFI	0.00	6/6	1/18
KIGGVTNGISFKKNSVA	EQSTRED	QQYDRLPLS	0.88	6/6	0/18
KLSQSGLYGQRNKMSVA	QASQRES	QQYHRLPLS	0.47	6/6	2/18
HLSPSVLYESRNKNSVA	NASTRED	QQYHRLPLS	-0.40	6/6	0/18
KSSQSVLYESVNKNPVA	WASTREE	QCYHRLPLS	nd	0/6	0/18
KVMQSELYEQRNANNVA	NGSTRES	QQYHRLPLS	-0.33	6/6	0/18
KIGSGTNGEKFQSNSVA	QASTREE	QQYHRLPLS	0.21	6/6	0/18
KLSQSDLYESRNKNNVA	QASTRES	QQYHRLPLS	-0.33	6/6	0/18
KLSQSFLYEDRNWNNVA	AASKRES	QQYHRLPLS	-0.39	6/6	1/18
HVNHEQLDYKNYENNIA	HESQRLY	QQYSHLPLS	0.42	6/6	3/18
KISMLYNFQSTNKNSIA	EMTTRES	QHYHRLPLS	nd	0/6	0/18
KLSQSVLYESRNKNNVA	DASTRSS	QQYHRLPLS	-0.57	6/6	1/18
HSSPSVRYESRNKNSVA	NASTREQ	QDYHRLPLS	0.22	6/6	1/18
KLSQSDLYESRVKNSVA	GASTRES	QQYHRLPLS	0.03	6/6	0/18
KSSQSVLYESRNKNSVA	WAKTRES	QQYHRLPLS	2.63	4/6	1/18
HITYGMQVMGRHSKSIA	QAETREK	QQYDRLPLI	0.83	6/6	2/18

Extract of 7 entries:

| CDR-L1 | CDR-L2 | CDR-L3 | mean log10 Kd (nM) | seen in | signal with controls |
|---|---|---|---|---|---|
| KFGMSVLMGSYVRNSVA | QQSTREN | QQYDRLPLS | 1.17 | 6/6 | 0/18 |
| KSSQSVLYESRNKNSVA | WAKTRES | QQYHRLPLS | 2.63 | 4/6 | 1/18 |
| KISQSVGYESRNKNSVA | NASTRES | QQYHRLPLS | -0.23 | 6/6 | 1/18 |
| IVSQLMMWGMHAKNSIA | EAVTRLN | QQYDRLPLF | 1.75 | 1/6 | 0/18 |
| KSSQSVWMESRNKNSVA | DASTRES | QQYHRLPLS | 0.25 | 6/6 | 1/18 |
| KLQQSVLYESRNKNSVA | HASTRED | QQYHRLPLS | -0.23 | 6/6 | 2/18 |
| KSSPSTLYESRNTNSVA | RASTRES | QQYHRLPLS | 1.35 | 5/6 | 0/18 |

Values reported by Li et al. 2023, doi:10.1038/s41467-023-39022-2 (FLAb copy).